From patent US20080139564A1, “SUBSTITUTED PHENYL PROPYL AMINES AS HISTAMINE H3 RECEPTOR AND SEROTONIN TRANSPORTER MODULATORS” (priority 2006, published 2008)

Sequences of proteins named here, by UniProt entry; tags and fusion partners are left off. A change or cut given only in a name is not applied to a line headed by its entry.
UniProt Q9Y5N1: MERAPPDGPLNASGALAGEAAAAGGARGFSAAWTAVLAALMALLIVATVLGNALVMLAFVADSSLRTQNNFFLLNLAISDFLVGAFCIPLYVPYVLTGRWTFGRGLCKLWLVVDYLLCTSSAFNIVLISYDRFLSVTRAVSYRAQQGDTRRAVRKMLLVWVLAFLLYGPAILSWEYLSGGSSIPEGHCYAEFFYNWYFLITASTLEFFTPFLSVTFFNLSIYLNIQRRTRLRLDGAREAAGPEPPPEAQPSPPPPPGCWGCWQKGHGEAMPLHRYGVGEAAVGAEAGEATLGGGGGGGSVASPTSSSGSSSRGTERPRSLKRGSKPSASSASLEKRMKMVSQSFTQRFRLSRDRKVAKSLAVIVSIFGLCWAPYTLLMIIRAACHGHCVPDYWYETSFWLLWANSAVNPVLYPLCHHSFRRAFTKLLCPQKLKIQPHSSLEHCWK
UniProt P31645, whole entry: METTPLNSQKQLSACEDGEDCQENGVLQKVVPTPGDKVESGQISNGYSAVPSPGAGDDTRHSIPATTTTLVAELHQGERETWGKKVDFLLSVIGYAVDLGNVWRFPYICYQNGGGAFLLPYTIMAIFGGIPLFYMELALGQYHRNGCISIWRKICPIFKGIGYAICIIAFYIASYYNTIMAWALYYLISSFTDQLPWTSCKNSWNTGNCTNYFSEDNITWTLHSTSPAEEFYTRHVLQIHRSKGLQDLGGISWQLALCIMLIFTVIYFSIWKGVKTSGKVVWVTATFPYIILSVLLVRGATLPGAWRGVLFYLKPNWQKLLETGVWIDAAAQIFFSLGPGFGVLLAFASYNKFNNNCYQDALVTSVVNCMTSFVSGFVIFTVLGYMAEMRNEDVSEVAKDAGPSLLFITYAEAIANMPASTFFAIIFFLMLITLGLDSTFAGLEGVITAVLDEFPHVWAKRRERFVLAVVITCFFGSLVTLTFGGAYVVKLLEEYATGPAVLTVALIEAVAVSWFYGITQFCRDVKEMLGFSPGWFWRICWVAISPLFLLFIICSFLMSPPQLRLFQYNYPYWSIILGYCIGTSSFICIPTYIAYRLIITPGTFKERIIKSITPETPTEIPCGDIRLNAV
UniProt P31652, whole entry: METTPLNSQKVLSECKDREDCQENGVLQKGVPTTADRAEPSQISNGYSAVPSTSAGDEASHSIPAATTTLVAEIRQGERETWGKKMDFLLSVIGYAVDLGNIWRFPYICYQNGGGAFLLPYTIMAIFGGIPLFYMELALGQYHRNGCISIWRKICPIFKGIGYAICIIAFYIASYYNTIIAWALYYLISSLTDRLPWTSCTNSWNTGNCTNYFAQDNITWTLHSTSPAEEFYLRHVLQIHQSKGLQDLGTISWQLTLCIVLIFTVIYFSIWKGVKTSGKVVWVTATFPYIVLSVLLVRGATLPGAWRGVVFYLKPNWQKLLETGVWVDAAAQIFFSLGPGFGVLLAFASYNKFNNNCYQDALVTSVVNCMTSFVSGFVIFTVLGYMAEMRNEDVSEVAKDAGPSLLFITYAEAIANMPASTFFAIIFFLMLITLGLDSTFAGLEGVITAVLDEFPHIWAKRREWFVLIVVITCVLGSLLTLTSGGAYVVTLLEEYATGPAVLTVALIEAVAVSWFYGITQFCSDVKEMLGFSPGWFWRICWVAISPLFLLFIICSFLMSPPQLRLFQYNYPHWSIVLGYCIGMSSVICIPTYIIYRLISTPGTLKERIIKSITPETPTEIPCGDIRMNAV

Experiments:
human H3 receptor [1] = molecular target: T1, human H3 receptor (Homo sapiens, UniProt Q9Y5N1); assay: H3 receptor binding (N-[3H]-α-methylhistamine displacement, SK-N-MC cell membranes); conditions: 0.8 nM N-[3H]-α-methylhistamine, 60 min at 25° C.
T1 construct: expressed in transfected cells
Procedure: Binding of compounds to the cloned human H3 receptor, stably expressed in SK-N-MC cells, was performed (Lovenberg, T. W. et al. J. Pharmacol. Exp. Ther. 2000, 293, 771-778). Briefly, cell pellets from SK-N-MC cells expressing the human H3 receptor were homogenized in 50 mM Tris-HCl/5 mM EDTA and re-centrifuged at 30,000 g for 30 min. Pellets were re-homogenized in 50 mM Tris/5 mM EDTA (pH 7.4). Membranes were incubated with 0.8 nM N—[^3H]-α-methylhistamine plus/minus test compounds for 60 min at 25° C. and harvested by rapid filtration over GF/C glass fiber filters (pretreated with 0.3% polyethylenimine) followed by four washes with ice-cold buffer. Nonspecific binding was defined in the presence of 10 μM histamine.

human SERT = molecular target: T2, human SERT (Homo sapiens, UniProt P31645); assay: Human SERT binding (3H-citalopram displacement, HEK293 membranes); conditions: 3H-citalopram 3.1 nM, rt for 1 h
T2 construct: expressed in transfected cells; host or cells: HEK293
Procedure: Homogenized HEK293 (Human Embryonic Kidney) membranes expressing the human SERT were incubated with ^3H-citalopram (SERT) at rt for 1 h in 50 mM Tris, 120 mM NaCl, 5 mM KCl (pH 7.4). Nonspecific binding was determined in the presence of 10 μM fluoxetine for the SERT. The membranes were washed and the radioactivity was counted as above. Calculations for Ki at the SERT were based on a Kd value for ^3H-citalopram and a ligand concentration of 3.1 nM.

human H3 receptor [2] = molecular target: T1, human H3 receptor; assay: Cyclic AMP accumulation (β-galactosidase reporter in SK-N-MC cells); type: cell-based; conditions: Schild regression analysis of the pEC50 values, histamine agonist, forskolin 5 μM, read-out: pA2 (converted)
Procedure: Sublines of SK-N-MC cells were created that expressed a reporter construct and the human H3 receptor. The reporter gene (β-galactosidase) is under the control of multiple cyclic AMP responsive elements. In 96-well plates, histamine was added directly to the cell media followed 5 min later by an addition of forskolin (5 μM final concentration). When appropriate, antagonists were added 10 min prior to agonist addition. After a 6-h incubation at 37° C., the media was aspirated and the cells washed with 200 μL of phosphate-buffered saline followed by a second aspiration. Cells were lysed with 25 μL 0.1× assay buffer (10 mM Na-phosphate, pH 8, 0.2 mM MgSO4, 0.01 mM MnCl2) and incubated at rt for 10 min. Cells were then incubated for 10 min with 100 μL of 1× assay buffer containing 0.5% Triton and 40 mM β-mercaptoethanol. Color was developed using 25 μL of 1 mg/mL substrate solution (chlorophenolred β-D galactopyranoside; Roche Molecular Biochemicals, Indianapolis, Ind.). Color was quantitated on a microplate reader at absorbance 570 nm. The pA2 values were calculated by Schild regression analysis of the pEC50 values.

Rat SERT = molecular target: T3, Rat SERT (Rattus norvegicus, UniProt P31652); assay: Rat brain SERT binding ([3H]-Citalopram displacement, rat brain membranes); conditions: 0.6 nM [3H]-Citalopram, 60 min at 25° C.
T3 construct: A rat brain without cerebellum (Zivic Laboratories, Inc.—Pittsburgh, Pa.) was homogenized; tissue Zivic Laboratories, Inc; host or cells: rat brain without cerebellum
Procedure: A rat brain without cerebellum (Zivic Laboratories, Inc.—Pittsburgh, Pa.) was homogenized in a 52.6 mM Tris pH 8/126.4 mM NaCl/5.26 mM KCl mixture and centrifuged at 1,000 rpm for 5 min. The supernatant was removed and re-centrifuged at 15,000 rpm for 30 min. Pellets were re-homogenized in a 52.6 mM Tris pH8/126.4 mM NaCl/5.26 mM KCl mixture. Membranes were incubated with 0.6 nM [^3H]-Citalopram plus/minus test compounds for 60 min at 25° C. and harvested by rapid filtration over GF/C glass fiber filters (pretreated with 0.3% polyethylenimine) followed by four washes with ice-cold buffer. Nonspecific binding was defined in the presence of 100 μM fluoxetine.

Row | Ki (human H3 receptor [1]) [nM] | Ki (human SERT) [nM] | Kb (human H3 receptor [2]) [nM] | SMILES | Ki (Rat SERT) [nM]
1 | 4.3 | 7.3 | 7.08 | CN(C)CCC(Oc1ccc(Cl)c(Cl)c1)c1ccc(OCCCN2CCCCC2)cc1 (single isomer, unassigned; (+)) [Example 75, (+)-{3-(3,4-Dichloro-phenoxy)-3-[4-(3-piperidin-1-yl-propoxy)phenyl]-propyl}-dimethyl-amine] | –
2 | 4 | 3 | 5.89 | CN(C)CCC(Oc1ccc(Cl)c(Cl)c1)c1ccc(OCCCN2CCCCC2)cc1 (single isomer, unassigned; (-)) [Example 74, (−){3-(3,4-Dichloro-phenoxy)-3-[4-(3-piperidin-1-yl-propoxy)phenyl]-propyl}-dimethyl-amine] | –
3 | 5 | 5 | 7.08 | CN(C)CCC(Oc1ccc(Cl)c(Cl)c1)c1ccc(OCCCN2CCCCC2)cc1 (centres unmarked) [Example 9, {3-(3,4-Dichloro-phenoxy)-3-[4-(3-piperidin-1-yl-propoxy)-phenyl]-propyl}-dimethyl-amine] | –

Row | SMILES | Ki (human H3 receptor [1]) [nM] | Ki (human SERT) [nM] | Kb (human H3 receptor [2]) [nM] | Ki (Rat SERT) [nM]
4 | CC(C)N1CCN(C(=O)c2ccc(C(CCN(C)C)Oc3ccc(C(F)(F)F)cc3)cc2)CC1 (centres unmarked) [Example 39, {4-[3-Dimethylamino-1-(4-trifluoromethyl-phenoxy)-propyl]-phenyl}-(4-isopropyl-piperazin-1-yl)-methanone] | – | 42 | – | 42
